Experimental data reported in ChEMBL document CHEMBL1146777, “Interaction with the S1 beta-pocket of urokinase: 8-heterocycle substituted and 6,8-disubstituted 2-naphthamidine urokinase inhibitors” (Bioorg Med Chem Lett, 2004).

These compounds were tested against Urokinase-type plasminogen activator (Homo sapiens, UniProt P00749).

SMILES | Ki [nM]
COc1ccc2ccc(C(=N)N)cc2c1C1CCOC1 (stereo not given) | 530
CCS(=O)(=O)c1cc(-c2cc(C(=O)Nc3ccccc3)cc3ccc(C(=N)N)cc23)co1 | 18
CC(C)Oc1cccc(NC(=O)c2cc(C3CCOC3)c3cc(C(=N)N)ccc3c2)c1 (stereo not given) | 8.5

Further lines, results first:

Ki [nM] | SMILES
630 | COc1ccc2ccc(C(=N)N)cc2c1-c1cnn(S(C)(=O)=O)c1
2100 | COc1ccc2ccc(C(=N)N)cc2c1-c1ccco1
